Reference: patent publication US12091402B2 (Avilar Therapeutics, Inc., priority 2021, dated 2024)

Chains of the proteins cited; added tags and fusions are not shown.
UniProt P07306, whole entry: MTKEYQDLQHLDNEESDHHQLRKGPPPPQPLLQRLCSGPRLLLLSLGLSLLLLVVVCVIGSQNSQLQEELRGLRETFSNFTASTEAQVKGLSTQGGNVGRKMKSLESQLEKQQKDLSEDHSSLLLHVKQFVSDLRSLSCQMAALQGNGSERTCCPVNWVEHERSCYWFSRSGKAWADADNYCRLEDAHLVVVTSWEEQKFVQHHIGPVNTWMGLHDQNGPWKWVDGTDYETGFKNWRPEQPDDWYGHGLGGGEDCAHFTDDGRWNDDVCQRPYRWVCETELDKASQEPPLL
UniProt P07307, whole entry partner: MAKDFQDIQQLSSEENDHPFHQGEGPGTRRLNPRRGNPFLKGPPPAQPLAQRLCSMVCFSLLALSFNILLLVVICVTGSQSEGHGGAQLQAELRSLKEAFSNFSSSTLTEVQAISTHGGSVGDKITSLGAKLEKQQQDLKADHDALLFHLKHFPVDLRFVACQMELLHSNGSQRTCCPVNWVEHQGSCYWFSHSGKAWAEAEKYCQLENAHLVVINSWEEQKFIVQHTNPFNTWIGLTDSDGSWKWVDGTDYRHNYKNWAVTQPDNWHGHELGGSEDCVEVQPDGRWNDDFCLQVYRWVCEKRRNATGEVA

Tests used:
ASGPR = ASGPR (Homo sapiens, UniProt P07306); experiment: Affinity to ASGPR by surface plasmon resonance (SPR); details: read-out: ASGPR SPR Binding: KD; Biacore 8K, 25° C.; class symbols
HepG2 cells = experiment: Cellular uptake assay of AF488-labeled antibody (HepG2); assay type: cell-based; details: read-out: Uptake Assay EC50, 100 nM AF488-labeled antibody, 37° C. for 6 hours, numeric bounds
[1] = molecular target: ASGPR receptor on the cell surface (HepG2 cells) (Homo sapiens, UniProt P07306); experiment: Ternary complex formation assay (flow cytometry, HepG2); assay type: cell-based; details: read-out: Ternary Complex EC50, 100 nM AF488-labeled antibody, 1 hour at 4° C., numeric bounds

| Compound | Kd (ASGPR) [µM] | EC50 (HepG2 cells) [µM] | EC50 [1] [µM] |
| --- | --- | --- | --- |
| OC[C@@]12CO[C@@H](O1)[C@H](Nc1c(C(F)(F)F)ccnc1Cl)[C@@H](O)[C@H]2O | 10 to 100 | – | – |
| O=C(N[C@H]1[C@H]2OC[C@](COCCOCCOCCOCCOCCOCCOCCNc3ccc([N+](=O)[O-])cc3[N+](=O)[O-])(O2)[C@H](O)[C@@H]1O)C(F)(F)F | – | > 10 | > 10 |
